AlphaSeq binding of Ab-95 light chain variants to a spike HR2 peptide

Reference: Engelhart et al. 2022, doi:10.1038/s41597-022-01779-4. File: FLAb, binding data.

The target is the same throughout: PDVDLGDISGINAS, from the HR2 region of SARS-CoV-2 spike.

Each scFv is VH, a (GGGGS)3 linker, VL, as in the parent Ab-95, and differs from it in the CDRs of the light chain only.
VH: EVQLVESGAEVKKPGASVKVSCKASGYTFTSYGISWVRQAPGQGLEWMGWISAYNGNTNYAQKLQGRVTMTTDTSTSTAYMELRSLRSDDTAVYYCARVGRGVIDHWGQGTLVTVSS
VL: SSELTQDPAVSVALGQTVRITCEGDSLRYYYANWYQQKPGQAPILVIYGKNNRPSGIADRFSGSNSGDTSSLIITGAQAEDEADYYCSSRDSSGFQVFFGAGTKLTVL

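The parent was found by panning a naive human phage display library on the peptide. In library AAYL52, one, two or three CDR residues were substituted; doubles and triples were drawn at random. The assay is AlphaSeq: two haploid yeast populations carry antibody and antigen on their surface. After mating in shaken culture at 30 °C for 16 h, diploids were selected and their barcode pairs sequenced. The ratio of observed to expected reads was calibrated, replicate by replicate, on BCL2-family standards whose Kd was known from biolayer interferometry. There are three technical replicates.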

The parent's light chain CDRs are EGDSLRYYYAN, GKNNRPS, SSRDSSGFQVF; each variant's own CDRs replace them letter for letter. Affinities are written as log10 Kd with Kd in nM; a lower number is a better binder. A pair that was not seen in that replicate is written "ND"; this usually means weak binding, but a binder can also be missed.

| # | CDR-L1 | CDR-L2 | CDR-L3 | log10 Kd (nM) by replicate | signal with controls |
|---|---|---|---|---|---|
| 1 | EGDSLRYYYAN | GKNCRPS | SSRDSSGIQVF | 3.91 2.86 3.00 | 3 of 9 (3.41) |
| 2 | TYDSLRYYKAN | GKNNRPS | SSRDSSGFQVF | 3.69 2.43 3.28 | 1 of 9 (3.54) |
| 3 | RGSSLRYYYAN | GKNNRPS | SSRDSSGFQVF | 1.99 1.97 1.52 | 5 of 9 (3.93) |
| 4 | EGPSLRYDYAN | GKNNRPS | SSRDSSGFKVF | 2.00 1.91 1.68 | 3 of 9 (4.04) |
| 5 | EGDSLRYYYAN | GKNNRPL | SSKDRSGFQVF | 4.14 3.23 2.91 | 0 of 9 |
| 6 | EGDVLRYYYAN | GKNNRPV | SGRDSSGFQVF | 3.27 2.61 2.28 | 2 of 9 (3.57) |
| 7 | EGDSLRYYYAN | GKNNRPS | SSVDSKGFQLF | 4.36 ND 3.19 | 0 of 9 |
| 8 | SSDSLRYYYAG | GKNNRPS | SSRDSSGFQVF | 2.87 3.82 2.08 | 5 of 9 (4.11) |
| 9 | EGDSLRYCYAH | GKNTRPS | SSRDSSGFQVF | 3.28 3.01 3.52 | 3 of 9 (3.76) |
| 10 | EGDSLRYYYAV | GKYNRPS | SSRDNSGFQVF | ND ND ND | 0 of 9 |
| 11 | EGDSIRYYYAN | GKNNRPS | SSRDSSGFQWF | 2.97 3.49 3.18 | 3 of 9 (3.78) |
| 12 | EGDSLRYYYAN | GKNNRPS | SSRKSSGFCFF | 3.83 5.72 4.44 | 3 of 9 (3.42) |
| 13 | EGDSLYYYYAN | GKNNRPM | SSRDSSGFYVF | 3.39 3.21 2.14 | 4 of 9 (3.34) |
| 14 | EGISIRYYYAN | GKNNRPS | SSRSSSGFQVF | 3.22 3.57 ND | 4 of 9 (3.92) |
| 15 | EGDSLNNYYRN | GKNNRPS | SSRDSSGFQVF | 1.92 1.98 1.67 | 5 of 9 (3.73) |
| 16 | EGDSHRYYYAN | GKNNRPS | SSRDSSGFMEF | 3.58 3.13 3.51 | 4 of 9 (3.83) |
| 17 | EGDSLRYYYAN | GKNNRGS | DSRDSSGFTVF | 3.12 ND ND | 1 of 9 (3.48) |
| 18 | EGDSERYYYAK | GKNNRPS | WSRDSSGFQVF | ND ND 4.42 | 2 of 9 (4.10) |
| 19 | EGDSLRKYYAN | GKNNRPS | SSRDFSGFQVR | 3.76 ND 3.16 | 3 of 9 (3.98) |
| 20 | EADSLFYYYAN | GKNNRFS | SSRDSSGFQVF | 4.64 ND ND | 3 of 9 (3.62) |
| 21 | EGDSLRYYYHN | GKNNRFS | SCRDSSGFQVF | 2.42 2.68 3.03 | 6 of 9 (3.58) |
| 22 | EGDSLRYYYAN | GKNNRPN | SCRDSSGFQVE | 2.48 2.55 2.20 | 1 of 9 (4.49) |
| 23 | EGDSLRYYYAN | GPNNRPS | SSTDSSGFQVF | 3.25 ND 4.06 | 1 of 9 (4.25) |
| 24 | EGDSLTYYYAN | IKNNRPK | SSRDSSGFQVF | 3.54 4.74 ND | 4 of 9 (4.63) |
| 25 | EGDSKQYYYAN | GKNNRPS | SQRDSSGFQVF | 2.94 3.33 2.94 | 3 of 9 (4.12) |
| 26 | EGDSLRYYYAM | GKNNRPS | SIRDSSGFQPF | 4.46 ND ND | 4 of 9 (4.35) |
| 27 | EGDSLRYYMAN | GKNNRPS | SSRDSKGFMVF | 2.26 1.84 1.48 | 5 of 9 (4.48) |
| 28 | EGDSLRYYYAL | GTNNRPS | SSRDSSGFWVF | ND ND ND | 6 of 9 (4.02) |
| 29 | EGDPLRTYYAN | GKNLRPS | SSRDSSGFQVF | 2.58 2.48 2.31 | 2 of 9 (4.39) |
| 30 | EGDSLRYYFAN | GKNNRPS | SSHDSSGFDVF | ND 2.99 ND | 2 of 9 (3.27) |
| 31 | EGDSLRYYYAN | GKNNRPM | SSRDMSGFQVF | 3.06 2.89 2.34 | 2 of 9 (3.76) |
| 32 | EGDSLRYIYAN | GKRNRPS | SSRDSSGFQNF | 3.61 ND 4.13 | 5 of 9 (3.49) |
| 33 | FGDSLRYYYAN | GKNNRPS | SSRGSSDFQVF | ND 3.38 3.84 | 3 of 9 (3.52) |
| 34 | EGDSLRYYYAN | GKNNRPS | SSTTSSGPQVF | 2.86 2.69 2.74 | 4 of 9 (4.08) |
| 35 | EGDSLRYYYAN | GKNNEPS | QMRDSSGFQVF | ND ND ND | 1 of 9 (3.67) |
| 36 | CGDSLRYYYAN | GKNNYPW | SSRDSSGFQVF | 5.68 4.29 ND | 3 of 9 (4.79) |
| 37 | EGDSLRYYYAN | GKGNRPS | SSRDSSGIQVP | 4.14 3.93 ND | 4 of 9 (4.45) |
| 38 | EGPSLRYYYAN | GKNNNPS | SSRDSSGFQNF | 3.43 3.25 2.42 | 5 of 9 (3.62) |
| 39 | EGDSLRYYYAN | GKENRPS | SSRDSSGHQVF | 2.43 3.05 3.32 | 2 of 9 (3.53) |
| 40 | EGDSLRYFYAN | GKNNIPS | SSRDISGFQVF | ND 3.94 ND | 4 of 9 (3.59) |
| 41 | EGDSLRYYYAN | GKNNWPS | ISRDSHGFQVF | 2.85 3.04 3.38 | 0 of 9 |
| 42 | HGDSLRYYYTN | GKNNRPS | SSRDQSGFQVF | 1.28 1.22 0.75 | 1 of 9 (4.00) |
| 43 | EGDSLRYYYAN | GVPSRPS | SSRDSSGFQVF | 5.03 ND ND | 1 of 9 (4.75) |
| 44 | EGHSLRYYYAN | GKNNRPS | SSRNFSGFQVF | 2.87 3.78 3.46 | 2 of 9 (3.43) |
| 45 | EGDSLRYPYVN | GKNNRPS | SSADSSGFQVF | 1.65 2.07 2.86 | 1 of 9 (3.70) |
| 46 | EGDSLRYYYAN | GKQNRPS | SSRDSSGNQVF | 2.90 3.16 3.49 | 6 of 9 (4.28) |

The first 3 variants above that were never detected:

{"CDR-L1": "EGDSLRYYYAV", "CDR-L2": "GKYNRPS", "CDR-L3": "SSRDNSGFQVF", "log10 Kd (nM) by replicate": "ND ND ND", "signal with controls": "0 of 9"}
{"CDR-L1": "EGDSLRYYYAL", "CDR-L2": "GTNNRPS", "CDR-L3": "SSRDSSGFWVF", "log10 Kd (nM) by replicate": "ND ND ND", "signal with controls": "6 of 9 (4.02)"}
{"CDR-L1": "EGDSLRYYYAN", "CDR-L2": "GKNNEPS", "CDR-L3": "QMRDSSGFQVF", "log10 Kd (nM) by replicate": "ND ND ND", "signal with controls": "1 of 9 (3.67)"}

In this assay the parent's reference entry averaged 2.31; its copy inside this library read 2.25. Background: pairings of library AAYL52 with three empty control strains gave a value in 28% of cases (median 3.91, 5th percentile 2.90). Values in that range, when seen in few replicates, are hard to tell from nonspecific mating. For each scFv, signals with the empty controls are counted beside the result, with their mean in brackets.